In ChEMBL document CHEMBL1142690, “Synthesis of NO-donor bisphosphonates and their in-vitro action on bone resorption” (J Med Chem, 2005):

Legend:
[1] = Affinity for hydroxyapatite after 24 hours; type: functional
[2] = Dissociation constant determined by the pH-metric method; type: functional

Row | Structure (SMILES) | Affinity [1] | pKa1 [2] | pKa2 [2] | pKa3 [2] | pKa4 [2]
1 | O=[N+]([O-])OCC(CCCC(P(=O)(O)O)P(=O)(O)O)O[N+](=O)[O-] (stereo not given) | 68.1% | < 1.5 | 2.71 | 6.6 | 11.2
2 | O=[N+]([O-])OCC(CCCC(O)(P(=O)(O)O)P(=O)(O)O)O[N+](=O)[O-] (stereo not given) | 46.3% | < 1.5 | 3.11 | 6.69 | 11.5
